From patent US20240293443A1, “HEPARAN SULFATE MIMETICS TO IMPROVE GLUCOSE CLEARANCE” (The Regents of the University of California, priority 2021, published 2024)

What was measured:
[1] = system: Ndst1−/− adipocytes; test: 3[H]-2-deoxy-glucose uptake in Ndst1−/− MEF-derived adipocytes; type: cell-based, mouse; conditions: 12.5 nM during the first 3 days of adipogenesis
Description: Cells were seeded on a 24-well plate at a density of 30,000 cells/cm^2. Cells were allowed to grow to confluence for 48 hours. At this point (Day 0), the media were removed, cells were washed with PBS, and differentiation media with or without heparin (100 μg/ml) were added. […] On Day 3 of differentiation, cells were washed with PBS and treated with insulin media, which consisted of 2 μM insulin, and 1 μM rosiglitazone in DMEM with 10% FBS. The cellular cholesterol and triglyceride content was determined after lysing cells in 0.1M NaOH. Total plasma cholesterol and plasma triglyceride levels (Sekisui Diagnostics) and protein levels (BCA protein assay) were determined using commercially available kits. Cells are washed twice with PBS and placed into DMEM with 2 mg/mL BSA for two hours. […] The insulin solution is then removed and the cells are washed twice with transport solution before radioactive transport solution is added, which consists of 0.25 μCi/well of 3[H]-2-deoxy-glucose and 0.025 mM 2-deoxy-glucose. […] The radioactive lysate was transferred to a scintillation vial containing 5 mL of Ultima Gold liquid scintillation fluid and analyzed using a liquid Scintillation counter. […] On Day 6, the adipocytes were subjected to the ^3[H]-2-deoxy-glucose uptake assay and the spent media were analyzed for glucose and lactate content as described above.

[2] = system: WT adipocytes; test: 3[H]-2-deoxy-glucose uptake in WT MEF-derived adipocytes; type: cell-based, mouse; conditions: Wnt inhibitor treatment during the first 3 days of adipogenesis
Description: Cells were seeded on a 24-well plate at a density of 30,000 cells/cm^2. Cells were allowed to grow to confluence for 48 hours. At this point (Day 0), the media were removed, cells were washed with PBS, and differentiation media with or without heparin (100 μg/ml) were added. […] On Day 3 of differentiation, cells were washed with PBS and treated with insulin media, which consisted of 2 μM insulin, and 1 μM rosiglitazone in DMEM with 10% FBS. The cellular cholesterol and triglyceride content was determined after lysing cells in 0.1M NaOH. Total plasma cholesterol and plasma triglyceride levels (Sekisui Diagnostics) and protein levels (BCA protein assay) were determined using commercially available kits.
Cells are washed twice with PBS and placed into DMEM with 2 mg/mL BSA for two hours. […] The radioactive lysate was transferred to a scintillation vial containing 5 mL of Ultima Gold liquid scintillation fluid and analyzed using a liquid Scintillation counter.
Cells were differentiated for 6 days using the standard adipogenic differentiation protocol described above. […] On Day 6, the adipocytes were subjected to the ^3[H]-2-deoxy-glucose uptake assay and the spent media were analyzed for glucose and lactate content as described above.

Which “glucose clearance in differentiated adipocytes” value [1] does the source give for `O=C(Nc1ccc([N+](=O)[O-])cc1Cl)c1cc(Cl)ccc1O` [Niclosamide] here?
The value was “able to enhance glucose clearance”.

What about the “glucose clearance in differentiated adipocytes” value [2] of the same compound?
Its value is “unable to significantly enhance glucose clearance”.
